# Target: IKZF1 (Homo sapiens, UniProt Q13422+Q96SW2)
# Sequences of proteins named here, by UniProt entry; tags and fusion partners are left off.
# UniProt Q13422, whole entry: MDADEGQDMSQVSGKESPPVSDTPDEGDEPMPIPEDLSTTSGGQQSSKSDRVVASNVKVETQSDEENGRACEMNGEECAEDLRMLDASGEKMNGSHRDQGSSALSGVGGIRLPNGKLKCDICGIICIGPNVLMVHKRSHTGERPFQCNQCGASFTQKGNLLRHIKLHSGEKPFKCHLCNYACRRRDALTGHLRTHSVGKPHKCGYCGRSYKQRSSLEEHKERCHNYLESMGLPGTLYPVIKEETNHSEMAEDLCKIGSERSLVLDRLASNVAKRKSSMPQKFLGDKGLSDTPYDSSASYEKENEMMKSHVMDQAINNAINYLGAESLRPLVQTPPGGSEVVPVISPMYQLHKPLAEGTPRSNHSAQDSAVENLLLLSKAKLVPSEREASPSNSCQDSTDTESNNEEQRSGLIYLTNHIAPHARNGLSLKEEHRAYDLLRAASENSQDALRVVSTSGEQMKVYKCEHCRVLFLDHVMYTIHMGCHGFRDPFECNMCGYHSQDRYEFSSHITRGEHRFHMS
# UniProt Q96SW2, whole entry: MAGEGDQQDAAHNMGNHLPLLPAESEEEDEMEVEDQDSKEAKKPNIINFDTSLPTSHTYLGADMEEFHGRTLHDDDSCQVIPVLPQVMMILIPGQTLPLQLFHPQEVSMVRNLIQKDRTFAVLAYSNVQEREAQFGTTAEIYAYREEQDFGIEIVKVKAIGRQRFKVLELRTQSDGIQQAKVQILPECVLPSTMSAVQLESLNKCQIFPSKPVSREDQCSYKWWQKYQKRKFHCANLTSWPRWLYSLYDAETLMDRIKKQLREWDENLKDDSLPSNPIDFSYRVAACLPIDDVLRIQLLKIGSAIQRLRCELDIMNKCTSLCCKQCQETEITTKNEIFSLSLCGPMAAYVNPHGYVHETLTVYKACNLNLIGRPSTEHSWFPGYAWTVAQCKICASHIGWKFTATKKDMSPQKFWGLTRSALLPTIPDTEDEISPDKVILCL
# UniProt P15170, whole entry: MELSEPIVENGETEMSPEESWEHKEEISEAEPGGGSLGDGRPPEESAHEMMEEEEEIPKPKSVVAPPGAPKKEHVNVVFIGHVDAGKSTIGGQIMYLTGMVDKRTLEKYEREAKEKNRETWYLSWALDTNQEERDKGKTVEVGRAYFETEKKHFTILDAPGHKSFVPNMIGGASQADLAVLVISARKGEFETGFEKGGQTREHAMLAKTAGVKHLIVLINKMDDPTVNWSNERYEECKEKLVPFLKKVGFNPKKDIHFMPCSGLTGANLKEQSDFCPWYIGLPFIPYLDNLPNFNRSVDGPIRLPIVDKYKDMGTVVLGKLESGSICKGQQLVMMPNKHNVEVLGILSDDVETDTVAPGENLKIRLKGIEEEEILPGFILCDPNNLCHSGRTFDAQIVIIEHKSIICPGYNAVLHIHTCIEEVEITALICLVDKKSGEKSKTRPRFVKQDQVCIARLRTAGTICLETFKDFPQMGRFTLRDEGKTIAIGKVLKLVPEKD
# UniProt P30291, whole entry: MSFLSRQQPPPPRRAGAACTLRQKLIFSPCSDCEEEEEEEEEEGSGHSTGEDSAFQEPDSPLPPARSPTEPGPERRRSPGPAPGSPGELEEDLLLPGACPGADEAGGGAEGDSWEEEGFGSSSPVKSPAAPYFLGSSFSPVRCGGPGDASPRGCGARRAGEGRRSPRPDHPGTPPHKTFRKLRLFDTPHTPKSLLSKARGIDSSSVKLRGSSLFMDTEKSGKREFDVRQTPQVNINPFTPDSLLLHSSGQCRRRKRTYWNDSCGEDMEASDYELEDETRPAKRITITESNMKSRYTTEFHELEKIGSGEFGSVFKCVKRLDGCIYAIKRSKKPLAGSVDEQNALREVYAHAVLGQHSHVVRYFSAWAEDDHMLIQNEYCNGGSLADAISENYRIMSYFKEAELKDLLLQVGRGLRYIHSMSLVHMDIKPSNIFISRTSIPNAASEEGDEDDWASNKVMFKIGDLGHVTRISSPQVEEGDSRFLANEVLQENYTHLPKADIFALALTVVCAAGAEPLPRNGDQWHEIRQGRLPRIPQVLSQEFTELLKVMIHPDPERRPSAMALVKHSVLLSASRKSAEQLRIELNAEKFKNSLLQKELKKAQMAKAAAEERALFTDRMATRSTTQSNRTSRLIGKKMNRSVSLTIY
# UniProt Q9UKS7, whole entry: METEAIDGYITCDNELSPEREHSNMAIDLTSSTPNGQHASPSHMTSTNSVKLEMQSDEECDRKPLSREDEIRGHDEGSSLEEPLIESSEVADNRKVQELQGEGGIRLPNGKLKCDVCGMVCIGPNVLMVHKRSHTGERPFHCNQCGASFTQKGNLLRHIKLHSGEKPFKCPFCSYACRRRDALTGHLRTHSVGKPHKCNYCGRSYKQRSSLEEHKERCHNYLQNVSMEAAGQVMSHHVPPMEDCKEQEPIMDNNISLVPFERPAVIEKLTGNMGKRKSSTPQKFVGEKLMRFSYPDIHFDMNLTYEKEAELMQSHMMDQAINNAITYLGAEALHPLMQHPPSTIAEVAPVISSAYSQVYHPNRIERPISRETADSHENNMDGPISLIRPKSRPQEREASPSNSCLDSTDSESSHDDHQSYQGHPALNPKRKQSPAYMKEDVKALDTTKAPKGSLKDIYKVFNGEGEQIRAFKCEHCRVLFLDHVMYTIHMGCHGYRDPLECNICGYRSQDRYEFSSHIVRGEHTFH
# UniProt Q9UKT9, whole entry: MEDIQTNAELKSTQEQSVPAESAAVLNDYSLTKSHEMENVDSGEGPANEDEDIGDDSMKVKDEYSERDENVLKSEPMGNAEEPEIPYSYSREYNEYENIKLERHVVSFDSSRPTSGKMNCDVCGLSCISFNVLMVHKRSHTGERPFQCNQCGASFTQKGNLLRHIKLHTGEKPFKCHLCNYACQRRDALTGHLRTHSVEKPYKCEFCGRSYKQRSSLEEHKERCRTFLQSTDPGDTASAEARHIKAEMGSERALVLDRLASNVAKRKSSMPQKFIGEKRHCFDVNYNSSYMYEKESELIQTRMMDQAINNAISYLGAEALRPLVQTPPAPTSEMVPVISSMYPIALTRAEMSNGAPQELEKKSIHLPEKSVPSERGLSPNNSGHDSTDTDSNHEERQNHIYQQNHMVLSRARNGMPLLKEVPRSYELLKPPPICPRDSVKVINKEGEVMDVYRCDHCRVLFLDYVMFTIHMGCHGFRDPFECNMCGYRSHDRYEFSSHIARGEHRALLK
# UniProt P48729, whole entry: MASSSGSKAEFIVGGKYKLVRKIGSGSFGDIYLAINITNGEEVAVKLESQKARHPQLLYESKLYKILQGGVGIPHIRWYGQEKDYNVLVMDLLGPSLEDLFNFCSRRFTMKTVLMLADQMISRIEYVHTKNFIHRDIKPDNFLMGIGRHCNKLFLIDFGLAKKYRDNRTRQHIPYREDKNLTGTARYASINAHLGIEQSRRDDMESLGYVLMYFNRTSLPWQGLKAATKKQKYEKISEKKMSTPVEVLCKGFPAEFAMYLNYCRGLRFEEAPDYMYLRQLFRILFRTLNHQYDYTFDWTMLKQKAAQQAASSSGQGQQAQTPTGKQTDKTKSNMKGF
# UniProt Q16531, whole entry partner: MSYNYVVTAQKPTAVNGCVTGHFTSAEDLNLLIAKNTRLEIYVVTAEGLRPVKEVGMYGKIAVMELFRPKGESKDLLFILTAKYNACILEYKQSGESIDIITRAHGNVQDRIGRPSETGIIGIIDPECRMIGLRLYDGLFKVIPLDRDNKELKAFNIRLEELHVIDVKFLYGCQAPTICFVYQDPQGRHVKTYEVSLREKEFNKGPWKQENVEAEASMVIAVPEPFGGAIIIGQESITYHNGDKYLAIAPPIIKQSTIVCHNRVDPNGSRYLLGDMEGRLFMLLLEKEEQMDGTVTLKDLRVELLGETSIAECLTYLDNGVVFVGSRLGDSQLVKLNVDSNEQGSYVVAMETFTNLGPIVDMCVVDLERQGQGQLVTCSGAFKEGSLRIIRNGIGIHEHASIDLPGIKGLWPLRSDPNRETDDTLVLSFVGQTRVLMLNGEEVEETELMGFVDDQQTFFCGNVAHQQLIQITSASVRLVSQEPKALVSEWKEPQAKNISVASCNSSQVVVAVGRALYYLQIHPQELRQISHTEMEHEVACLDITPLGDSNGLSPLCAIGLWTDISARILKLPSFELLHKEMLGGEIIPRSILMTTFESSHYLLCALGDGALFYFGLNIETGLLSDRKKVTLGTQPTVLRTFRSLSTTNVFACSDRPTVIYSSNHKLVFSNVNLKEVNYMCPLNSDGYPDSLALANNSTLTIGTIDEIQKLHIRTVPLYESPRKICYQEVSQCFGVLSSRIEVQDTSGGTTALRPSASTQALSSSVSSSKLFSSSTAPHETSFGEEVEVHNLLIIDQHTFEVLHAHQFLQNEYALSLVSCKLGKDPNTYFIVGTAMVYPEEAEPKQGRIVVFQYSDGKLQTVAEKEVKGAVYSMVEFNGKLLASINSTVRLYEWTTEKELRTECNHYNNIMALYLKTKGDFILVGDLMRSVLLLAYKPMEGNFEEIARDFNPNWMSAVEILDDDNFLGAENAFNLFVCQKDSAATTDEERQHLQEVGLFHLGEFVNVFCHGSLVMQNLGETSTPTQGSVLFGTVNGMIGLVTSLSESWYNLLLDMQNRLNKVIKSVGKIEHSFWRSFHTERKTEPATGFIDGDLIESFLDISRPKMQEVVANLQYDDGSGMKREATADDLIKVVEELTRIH
# Test: Western blot assay of substrate protein degradation in hPBMCs
# Details: 24 hours treatment, compounds at 50 nM and 500 nM (concentration behind the class not stated)
row,Structure (SMILES),substrate protein remaining % (IKZF 1)
1,O=C1CCC(N2Cc3ccc(CN4CCC(N5CCC(c6noc7cc(F)ccc67)CC5)C(F)(F)C4)cc3C2=O)C(=O)N1 (centres unmarked),B (80%< substrate protein remaining %≤ 100%)
2,CC1(C)CCC(CN2CCN(C3CCN(C(=O)c4cccc5c4C(=O)N(C4CCC(=O)NC4=O)C5)CC3(F)F)CC2)=C(c2ccc(Cl)cc2)C1 (centres unmarked),B (80%< substrate protein remaining %≤ 100%)
3,CC1(C)CCC(CN2CCN(C3CCN(CCc4ccc5c(c4)CN(C4CCC(=O)NC4=O)C5=O)CC3(F)F)CC2)=C(c2ccc(Cl)cc2)C1 (centres unmarked),B (80%< substrate protein remaining %≤ 100%)
4,CC1(C)CCC(CN2CCN(C3CCN(Cc4ccc5c(c4)CN(C4CCC(=O)NC4=O)C5=S)CC3(F)F)CC2)=C(c2ccc(Cl)cc2)C1 (centres unmarked),A (0% ≤ substrate protein remaining % ≤ 80%)
5,O=C1CCC(N2Cc3ccc(C(=O)N4CCC(N5CCN(C(c6ccccc6)c6ccccc6)CC5)CC4)cc3C2=O)C(=O)N1 (centres unmarked),A (0% ≤ substrate protein remaining % ≤ 80%)
6,O=C1CCC(N2Cc3c(CN4CCC(N5CCN(C(c6ccccc6)c6ccccn6)CC5)C(F)(F)C4)cccc3C2=O)C(=O)N1 (centres unmarked),B (80%< substrate protein remaining %≤ 100%)
7,O=C1CCC(N2Cc3cc(C(=O)N4CCC(N5CCN(c6cccc(Cl)c6Cl)CC5)C(F)(F)C4)cc(F)c3C2=O)C(=O)N1 (centres unmarked),B (80%< substrate protein remaining %≤ 100%)

# Target: GSPT1 (Homo sapiens, UniProt P15170+Q96SW2)
# Test: as above
# Details: 24 hours treatment, compounds at 50 nM and 500 nM (concentration behind the class not stated)
row,Structure (SMILES),substrate protein remaining % (GSPT1)
1,O=C1CCC(N2Cc3ccc(CN4CCC(N5CCC(c6noc7cc(F)ccc67)CC5)C(F)(F)C4)cc3C2=O)C(=O)N1 (centres unmarked),A (0% ≤ substrate protein remaining % ≤ 80%)
2,CC1(C)CCC(CN2CCN(C3CCN(C(=O)c4cccc5c4C(=O)N(C4CCC(=O)NC4=O)C5)CC3(F)F)CC2)=C(c2ccc(Cl)cc2)C1 (centres unmarked),B (80%< substrate protein remaining %≤ 100%)
3,CC1(C)CCC(CN2CCN(C3CCN(CCc4ccc5c(c4)CN(C4CCC(=O)NC4=O)C5=O)CC3(F)F)CC2)=C(c2ccc(Cl)cc2)C1 (centres unmarked),A (0% ≤ substrate protein remaining % ≤ 80%)
4,CC1(C)CCC(CN2CCN(C3CCN(Cc4ccc5c(c4)CN(C4CCC(=O)NC4=O)C5=S)CC3(F)F)CC2)=C(c2ccc(Cl)cc2)C1 (centres unmarked),A (0% ≤ substrate protein remaining % ≤ 80%)
5,O=C1CCC(N2Cc3ccc(C(=O)N4CCC(N5CCN(C(c6ccccc6)c6ccccc6)CC5)CC4)cc3C2=O)C(=O)N1 (centres unmarked),A (0% ≤ substrate protein remaining % ≤ 80%)
6,O=C1CCC(N2Cc3c(CN4CCC(N5CCN(C(c6ccccc6)c6ccccn6)CC5)C(F)(F)C4)cccc3C2=O)C(=O)N1 (centres unmarked),A (0% ≤ substrate protein remaining % ≤ 80%)
7,O=C1CCC(N2Cc3cc(C(=O)N4CCC(N5CCN(c6cccc(Cl)c6Cl)CC5)C(F)(F)C4)cc(F)c3C2=O)C(=O)N1 (centres unmarked),A (0% ≤ substrate protein remaining % ≤ 80%)

# Target: WEE1 (Homo sapiens, UniProt P30291+Q96SW2)
# Test: as above
# Details: 24 hours treatment, compounds at 50 nM and 500 nM (concentration behind the class not stated)
row,Structure (SMILES),substrate protein remaining % (WEE1)
1,O=C1CCC(N2Cc3ccc(CN4CCC(N5CCC(c6noc7cc(F)ccc67)CC5)C(F)(F)C4)cc3C2=O)C(=O)N1 (centres unmarked),B (80%< substrate protein remaining %≤ 100%)
2,CC1(C)CCC(CN2CCN(C3CCN(C(=O)c4cccc5c4C(=O)N(C4CCC(=O)NC4=O)C5)CC3(F)F)CC2)=C(c2ccc(Cl)cc2)C1 (centres unmarked),B (80%< substrate protein remaining %≤ 100%)
3,CC1(C)CCC(CN2CCN(C3CCN(CCc4ccc5c(c4)CN(C4CCC(=O)NC4=O)C5=O)CC3(F)F)CC2)=C(c2ccc(Cl)cc2)C1 (centres unmarked),A (0% ≤ substrate protein remaining % ≤ 80%)
4,CC1(C)CCC(CN2CCN(C3CCN(Cc4ccc5c(c4)CN(C4CCC(=O)NC4=O)C5=S)CC3(F)F)CC2)=C(c2ccc(Cl)cc2)C1 (centres unmarked),A (0% ≤ substrate protein remaining % ≤ 80%)
5,O=C1CCC(N2Cc3ccc(C(=O)N4CCC(N5CCN(C(c6ccccc6)c6ccccc6)CC5)CC4)cc3C2=O)C(=O)N1 (centres unmarked),B (80%< substrate protein remaining %≤ 100%)
6,O=C1CCC(N2Cc3c(CN4CCC(N5CCN(C(c6ccccc6)c6ccccn6)CC5)C(F)(F)C4)cccc3C2=O)C(=O)N1 (centres unmarked),B (80%< substrate protein remaining %≤ 100%)
7,O=C1CCC(N2Cc3cc(C(=O)N4CCC(N5CCN(c6cccc(Cl)c6Cl)CC5)C(F)(F)C4)cc(F)c3C2=O)C(=O)N1 (centres unmarked),B (80%< substrate protein remaining %≤ 100%)

# Target: IKZF2 (Homo sapiens, UniProt Q96SW2+Q9UKS7)
# Test: as above
# Details: 24 hours treatment, compounds at 50 nM and 500 nM (concentration behind the class not stated)
row,Structure (SMILES),substrate protein remaining % (IKZF2)
1,O=C1CCC(N2Cc3ccc(CN4CCC(N5CCC(c6noc7cc(F)ccc67)CC5)C(F)(F)C4)cc3C2=O)C(=O)N1 (centres unmarked),B (80%< substrate protein remaining %≤ 100%)
2,CC1(C)CCC(CN2CCN(C3CCN(C(=O)c4cccc5c4C(=O)N(C4CCC(=O)NC4=O)C5)CC3(F)F)CC2)=C(c2ccc(Cl)cc2)C1 (centres unmarked),B (80%< substrate protein remaining %≤ 100%)
3,CC1(C)CCC(CN2CCN(C3CCN(CCc4ccc5c(c4)CN(C4CCC(=O)NC4=O)C5=O)CC3(F)F)CC2)=C(c2ccc(Cl)cc2)C1 (centres unmarked),B (80%< substrate protein remaining %≤ 100%)
4,CC1(C)CCC(CN2CCN(C3CCN(Cc4ccc5c(c4)CN(C4CCC(=O)NC4=O)C5=S)CC3(F)F)CC2)=C(c2ccc(Cl)cc2)C1 (centres unmarked),B (80%< substrate protein remaining %≤ 100%)
5,O=C1CCC(N2Cc3ccc(C(=O)N4CCC(N5CCN(C(c6ccccc6)c6ccccc6)CC5)CC4)cc3C2=O)C(=O)N1 (centres unmarked),A (0% ≤ substrate protein remaining % ≤ 80%)
6,O=C1CCC(N2Cc3c(CN4CCC(N5CCN(C(c6ccccc6)c6ccccn6)CC5)C(F)(F)C4)cccc3C2=O)C(=O)N1 (centres unmarked),B (80%< substrate protein remaining %≤ 100%)
7,O=C1CCC(N2Cc3cc(C(=O)N4CCC(N5CCN(c6cccc(Cl)c6Cl)CC5)C(F)(F)C4)cc(F)c3C2=O)C(=O)N1 (centres unmarked),B (80%< substrate protein remaining %≤ 100%)

# Target: IKZF3 (Homo sapiens, UniProt Q96SW2+Q9UKT9)
# Test: as above
# Details: 24 hours treatment, compounds at 50 nM and 500 nM (concentration behind the class not stated)
row,Structure (SMILES),substrate protein remaining % (IKZF3)
1,O=C1CCC(N2Cc3ccc(CN4CCC(N5CCC(c6noc7cc(F)ccc67)CC5)C(F)(F)C4)cc3C2=O)C(=O)N1 (centres unmarked),B (80%< substrate protein remaining %≤ 100%)
2,CC1(C)CCC(CN2CCN(C3CCN(C(=O)c4cccc5c4C(=O)N(C4CCC(=O)NC4=O)C5)CC3(F)F)CC2)=C(c2ccc(Cl)cc2)C1 (centres unmarked),A (0% ≤ substrate protein remaining % ≤ 80%)
3,CC1(C)CCC(CN2CCN(C3CCN(CCc4ccc5c(c4)CN(C4CCC(=O)NC4=O)C5=O)CC3(F)F)CC2)=C(c2ccc(Cl)cc2)C1 (centres unmarked),B (80%< substrate protein remaining %≤ 100%)
4,CC1(C)CCC(CN2CCN(C3CCN(Cc4ccc5c(c4)CN(C4CCC(=O)NC4=O)C5=S)CC3(F)F)CC2)=C(c2ccc(Cl)cc2)C1 (centres unmarked),B (80%< substrate protein remaining %≤ 100%)
5,O=C1CCC(N2Cc3ccc(C(=O)N4CCC(N5CCN(C(c6ccccc6)c6ccccc6)CC5)CC4)cc3C2=O)C(=O)N1 (centres unmarked),B (80%< substrate protein remaining %≤ 100%)
6,O=C1CCC(N2Cc3c(CN4CCC(N5CCN(C(c6ccccc6)c6ccccn6)CC5)C(F)(F)C4)cccc3C2=O)C(=O)N1 (centres unmarked),B (80%< substrate protein remaining %≤ 100%)
7,O=C1CCC(N2Cc3cc(C(=O)N4CCC(N5CCN(c6cccc(Cl)c6Cl)CC5)C(F)(F)C4)cc(F)c3C2=O)C(=O)N1 (centres unmarked),B (80%< substrate protein remaining %≤ 100%)

# Target: CK1α (Homo sapiens, UniProt P48729+Q96SW2)
# Test: as above
# Details: 24 hours treatment, compounds at 50 nM and 500 nM (concentration behind the class not stated)
row,Structure (SMILES),substrate protein remaining % (CK1a)
1,O=C1CCC(N2Cc3ccc(CN4CCC(N5CCC(c6noc7cc(F)ccc67)CC5)C(F)(F)C4)cc3C2=O)C(=O)N1 (centres unmarked),B (80%< substrate protein remaining %≤ 100%)
2,CC1(C)CCC(CN2CCN(C3CCN(C(=O)c4cccc5c4C(=O)N(C4CCC(=O)NC4=O)C5)CC3(F)F)CC2)=C(c2ccc(Cl)cc2)C1 (centres unmarked),B (80%< substrate protein remaining %≤ 100%)
3,CC1(C)CCC(CN2CCN(C3CCN(CCc4ccc5c(c4)CN(C4CCC(=O)NC4=O)C5=O)CC3(F)F)CC2)=C(c2ccc(Cl)cc2)C1 (centres unmarked),A (0% ≤ substrate protein remaining % ≤ 80%)
4,CC1(C)CCC(CN2CCN(C3CCN(Cc4ccc5c(c4)CN(C4CCC(=O)NC4=O)C5=S)CC3(F)F)CC2)=C(c2ccc(Cl)cc2)C1 (centres unmarked),B (80%< substrate protein remaining %≤ 100%)
5,O=C1CCC(N2Cc3ccc(C(=O)N4CCC(N5CCN(C(c6ccccc6)c6ccccc6)CC5)CC4)cc3C2=O)C(=O)N1 (centres unmarked),A (0% ≤ substrate protein remaining % ≤ 80%)
6,O=C1CCC(N2Cc3c(CN4CCC(N5CCN(C(c6ccccc6)c6ccccn6)CC5)C(F)(F)C4)cccc3C2=O)C(=O)N1 (centres unmarked),A (0% ≤ substrate protein remaining % ≤ 80%)
7,O=C1CCC(N2Cc3cc(C(=O)N4CCC(N5CCN(c6cccc(Cl)c6Cl)CC5)C(F)(F)C4)cc(F)c3C2=O)C(=O)N1 (centres unmarked),A (0% ≤ substrate protein remaining % ≤ 80%)

# Target: CRBN (Homo sapiens, UniProt Q96SW2)
# Test: CRBN binding affinity by HTRF (CEREBLON BINDING kit)
# Details: CRBN binding, HTRF, compound at 0.5 µM
row,Structure (SMILES),Inhibition Rate at 0.5 µM (%)
1,O=C1CCC(N2Cc3ccc(CN4CCC(N5CCC(c6noc7cc(F)ccc67)CC5)C(F)(F)C4)cc3C2=O)C(=O)N1 (centres unmarked),a3 (30% < a3 ≤ 40%)
2,CC1(C)CCC(CN2CCN(C3CCN(C(=O)c4cccc5c4C(=O)N(C4CCC(=O)NC4=O)C5)CC3(F)F)CC2)=C(c2ccc(Cl)cc2)C1 (centres unmarked),a1 (10% < a1 ≤ 20%)
3,CC1(C)CCC(CN2CCN(C3CCN(CCc4ccc5c(c4)CN(C4CCC(=O)NC4=O)C5=O)CC3(F)F)CC2)=C(c2ccc(Cl)cc2)C1 (centres unmarked),a7 (70% < a7 ≤80%)
4,CC1(C)CCC(CN2CCN(C3CCN(Cc4ccc5c(c4)CN(C4CCC(=O)NC4=O)C5=S)CC3(F)F)CC2)=C(c2ccc(Cl)cc2)C1 (centres unmarked),a2 (20% < a2 ≤ 30%)
5,O=C1CCC(N2Cc3ccc(C(=O)N4CCC(N5CCN(C(c6ccccc6)c6ccccc6)CC5)CC4)cc3C2=O)C(=O)N1 (centres unmarked),a2 (20% < a2 ≤ 30%)
6,O=C1CCC(N2Cc3c(CN4CCC(N5CCN(C(c6ccccc6)c6ccccn6)CC5)C(F)(F)C4)cccc3C2=O)C(=O)N1 (centres unmarked),a6 (60% < a6 ≤ 70%)
7,O=C1CCC(N2Cc3cc(C(=O)N4CCC(N5CCN(c6cccc(Cl)c6Cl)CC5)C(F)(F)C4)cc(F)c3C2=O)C(=O)N1 (centres unmarked),a4 (40% < a4 ≤ 53%)

# Same assay, conditions: CRBN binding, HTRF, compound at 2 µM
row,Structure (SMILES),Inhibition Rate at 2 µM (%)
1,O=C1CCC(N2Cc3ccc(CN4CCC(N5CCC(c6noc7cc(F)ccc67)CC5)C(F)(F)C4)cc3C2=O)C(=O)N1 (centres unmarked),a5 (53% < a5 ≤ 60%)
2,CC1(C)CCC(CN2CCN(C3CCN(C(=O)c4cccc5c4C(=O)N(C4CCC(=O)NC4=O)C5)CC3(F)F)CC2)=C(c2ccc(Cl)cc2)C1 (centres unmarked),a5 (53% < a5 ≤ 60%)
3,CC1(C)CCC(CN2CCN(C3CCN(CCc4ccc5c(c4)CN(C4CCC(=O)NC4=O)C5=O)CC3(F)F)CC2)=C(c2ccc(Cl)cc2)C1 (centres unmarked),a8 (80% < a8 ≤100%)
4,CC1(C)CCC(CN2CCN(C3CCN(Cc4ccc5c(c4)CN(C4CCC(=O)NC4=O)C5=S)CC3(F)F)CC2)=C(c2ccc(Cl)cc2)C1 (centres unmarked),a5 (53% < a5 ≤ 60%)
5,O=C1CCC(N2Cc3ccc(C(=O)N4CCC(N5CCN(C(c6ccccc6)c6ccccc6)CC5)CC4)cc3C2=O)C(=O)N1 (centres unmarked),a5 (53% < a5 ≤ 60%)
6,O=C1CCC(N2Cc3c(CN4CCC(N5CCN(C(c6ccccc6)c6ccccn6)CC5)C(F)(F)C4)cccc3C2=O)C(=O)N1 (centres unmarked),a8 (80% < a8 ≤100%)
7,O=C1CCC(N2Cc3cc(C(=O)N4CCC(N5CCN(c6cccc(Cl)c6Cl)CC5)C(F)(F)C4)cc(F)c3C2=O)C(=O)N1 (centres unmarked),a7 (70% < a7 ≤80%)

# From patent EP4834897A1, “COMPOUNDS WITH TWO AZAHETEROCYCLES SUBSTITUTED ISOINDOLINONE SKELETON AND USES THEREOF” (dated 2026)
